Bioassay records: PubChem, National Center for Advancing Translational Sciences (NCATS)
Anesthetic bind – candidate novel general anesthetic via apoferritin binding; P02791; apoferritin/1-aminoanthracene competitive binding, fluorescence; Potency, µM (highest dose often 77.5 µM), for inactives: top-dose activity change, negative = displacement, actives largely listed as inhibitors; 350,000 compounds, 0.074% hits; AID 485281; further: potency means the concentration at half of the fitted maximal effect; on the % scale 0 is the no-effect control and ±100 the full control effect; nearly all actives have a fitted effect of over 20% in size
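Read-out: endpoint 1-AMA fluorescence, excitation 380 nm and emission 535 nm, after compounds sit 10 min at room temperature with 10 uM horse-spleen apoferritin in 50% saturated 1-AMA/PBS. Values come from four-parameter Hill fits.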
BRCA1 expr up – BRCA1 expression activation. MCF7-BRCA1-FFLuc reporter, luminescence, 48 h; response scale: scaled: vehicle 0%, 10 µM genistein 100%. Potency, µM (highest dose often 46.1 µM), inactives show at the highest dose activation, hits mostly activators. 380,000 compounds, 1.1% hits. AID 624202; further: potency means the concentration at half of the fitted maximal effect; nearly all actives have a fitted effect of over 80% in size
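Luminescence from a BRCA1-driven firefly luciferase in MCF7 cells was read after 48 h compound exposure at 37 C. Data normalized against DMSO and a 10microM genistein activation control, then curve-fitted across the titration.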
p53 reactivation – mutant p53 re-activation in reporter cells. H1299 p53-A138V BP100-luciferase reporter, luminescence, 24 h. Potency, µM (highest dose often 92.2 µM), for inactives: top-dose activity change, positive = activation, most hits filed as activators. 320,000 compounds, 0.063% hits; further: potency means the concentration at half of the fitted maximal effect; % of control where 0% means no effect; nearly all actives have a fitted effect of over 45% in size
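H1299 (p53-null), stable ts p53-A138V + BP100-Luc; 1000 cells/well, Opti-MEM/10% FBS; cpd 4 pt, 1:5; 24 h, 37 deg C, 5% CO2; detection reagent 10 min RT; luminescence.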
miR-21 reporter – raises the signal of a miR-21 reporter | HeLa miR-21 FLuc reporter, luciferase, 48 h | Potency, µM (highest dose often 38.3 µM), inactives show at the highest dose reporter change, positive = more light | 340,000 tested, under 10 active | AID 2288; active = well fitted rising curve with a large enough effect; inconclusive = small, poorly fitted or top-dose-only effect; inactive = no such curve, though single readings can be large or run the other way;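 note: % of control where 0% means no effect; miR-21 action dims this reporter so a rising signal means less miR-21 action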
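Luminescence from a firefly luciferase reporter carrying a miR-21 binding site downstream, stably expressed under a CMV promoter in HeLa cells that make miR-21 endogenously, reports miRNA modulation after 48 h compound exposure up to approximately 40uM final.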
* = called active by the depositor; ? = inconclusive; . = no result. Hits are enriched below; roughly 1.1% of the tested compounds scored in any of these assays. The call rests on the fitted dose curve; in most records, active means well fitted curve in the direction sought with a large enough effect; inconclusive means small, poorly fitted or top-dose-only effect, or another doubt; inactive means no such curve, though single readings can be large; an effect the other way counts as inactive or inconclusive.

SMILES | Anesthetic bind | BRCA1 expr up | p53 reactivation | miR-21 reporter
Cc1ccc(C(=O)NCCCc2ccccc2)c(Cl)c1 | ? | ? | . | -56%
O=C(CCc1ccccc1)Nc1cccc([N+](=O)[O-])c1 | ? | -8% | 9% | -14%
O=C(NCCCc1ccccc1)c1ccc([N+](=O)[O-])cc1Cl | -15% | 10µM* | ? | -56%
CC(=O)Nc1cccc(NC(=O)c2ccc([N+](=O)[O-])cc2Cl)c1 | 4% | 0% | 1% | -19%
Cc1ccc(NC(=O)c2ccc([N+](=O)[O-])cc2Cl)nc1 | -11% | 1.1µM* | ? | -34%
O=C(Nc1cccc(O)c1)c1ccc([N+](=O)[O-])cc1Cl | -8% | 5µM* | ? | -6%
O=C(CCCc1ccccc1)Nc1cccc([N+](=O)[O-])c1 | ? | 13µM* | 16% | -50%
CCOC(=O)c1c(C)sc(-c2c(-c3ccc4c(c3)OCCO4)[nH]c3c2c(=O)n(C)c(=O)n3C)c1O | 6% | . | . | -7%
COc1ccc(OC)c(S(=O)(=O)NCc2ccccn2)c1 | -3% | 3% | -32% | 3%
C=CCn1c(=O)[nH]c(=O)c2c(N)c(C(=O)c3ccc(OC)cc3)sc21 | . | -14% | . | .
CN(C)c1ccc(CNC(=O)C2Cc3c(-c4cccc(C(N)=O)c4)ccnc3O2)cc1 (stereo unspecified) | . | -27% | . | .
Cc1ccc(CNC(=O)Cn2ccn(-c3ccc(F)c(F)c3)c(=O)c2=O)cc1 | -8% | . | . | -22%
COc1ccc(CN2C(=O)CS/C2=N/N=C/c2ccccc2)cc1 | 0% | 4µM* | ? | -9%
COc1ccc(/C=N/N=C2/SCC(=O)N2Cc2ccccc2)cc1 | -2% | 5.6µM* | 18% | -64%
Cc1cccc(NC(=O)CC(=O)Nc2cccc(C)c2)c1 | -17% | 18% | 6% | -10%
Cc1cccc(NC(=O)CNc2cc(C)ccc2C)c1 | -19% | 13µM* | 4% | -26%
O=C(Nc1nc(-c2ccccn2)cs1)c1cc(Cl)ccc1[N+](=O)[O-] | -11% | -61% | 35µM* | 10%
CCOC(=O)c1ccc(NC(=O)C(Cc2ccccc2)N2Cc3ccccc3C2=O)cc1 (stereo unspecified) | -15% | . | . | 4%
COC(=O)C(Cc1ccc(OC(=O)c2ccc(C(F)(F)F)cc2)cc1)N1Cc2ccccc2C1=O (stereo unspecified) | ? | 11µM* | ? | -46%
COC(=O)C(Cc1ccc(OC(=O)c2ccc(Cl)cc2)cc1)N1Cc2ccccc2C1=O (stereo unspecified) | -3% | 13µM* | 18% | -43%
Fc1ccc(-c2nnc(-c3ccc(F)cc3)o2)cc1 | -8% | 2.5µM* | . | -53%
Fc1ccc(-c2nnc(Cc3nnc(-c4ccc(F)cc4)o3)o2)cc1 | -9% | 1% | -7% | -3%
O=C(Nc1ccccc1C(F)(F)F)N1CC=C(c2c[nH]c3ccccc23)CC1 | 61% | . | . | 1%
Cc1ccc2c(C)c(C(=O)N(C)C(C)c3ccncn3)oc2c1C (stereo unspecified) | -13% | 61% | -10% | -60%
Cc1ccc2c(C)c(C(=O)N(C)C(C)c3ccon3)oc2c1C (stereo unspecified) | -15% | 10µM* | 7% | -85%
O=C(COC(=O)c1c(F)cccc1F)Nc1ccc(N2CCCCC2)cc1 | . | 31% | 14% | .
COc1ccc(/C=C/C(=O)N(C)C2(C)CCS(=O)(=O)C2)cc1 (stereo unspecified) | . | 18% | 4% | .
O=C(NCc1ccco1)c1ccc(COc2cc(Cl)ccc2Cl)cc1 | -4% | 7.9µM* | ? | -39%
O=C(COc1ccc(Cl)cc1Cl)NNC(=S)NCc1ccco1 | -12% | 63% | 3% | -24%
Cc1ccc(Cl)c(OCC(=O)OCC(=O)c2ccc[nH]2)c1 | . | 3% | 5% | .

Record cards, as listed above.
`O=C(COc1ccc(Cl)cc1Cl)NNC(=S)NCc1ccco1` across the screens: Anesthetic bind: -12%; BRCA1 expr up: 63%; p53 reactivation: 3%; miR-21 reporter: -24%
`Fc1ccc(-c2nnc(Cc3nnc(-c4ccc(F)cc4)o3)o2)cc1` across the screens: Anesthetic bind: -9%; BRCA1 expr up: 1%; p53 reactivation: -7%; miR-21 reporter: -3%

Additional results
SMILES | Anesthetic bind | BRCA1 expr up | p53 reactivation | miR-21 reporter
O=C(COc1ccc(Cl)cc1Cl)NCc1ccco1 | -6% | 10µM* | ? | -69%
O=C(COc1ccc(Cl)cc1Cl)c1ccc[nH]1 | -15% | 10µM* | ? | -66%
CCOc1cc(C(=O)NCc2ccco2)cc(OCC)c1OCC | -7% | -3% | . | 2%
CCC(=O)N1c2ccccc2CC1C(=O)NCc1ccccc1C (stereo unspecified) | -7% | . | . | 6%
COc1cccc(C(=O)N(C)C(C)c2nc3ccccc3s2)c1 (stereo unspecified) | -17% | 9% | -3% | 0%
CC(=O)c1ccc(OC(C)c2nc3ccccc3s2)cc1 (stereo unspecified) | 4% | 6.3µM* | 24% | -55%
O=C(O)c1cc(NS(=O)(=O)c2ccc3ccccc3c2)ccc1O | -1% | -18% | 1% | -3%
O=C(O)c1ccccc1NS(=O)(=O)c1ccc2ccccc2c1 | 7% | 13µM* | ? | -54%
C/C(=C\c1ccc(N)cc1)c1nc2ccccc2[nH]1 | -1% | 7.9µM* | ? | -57%
CCOc1ccc(NC(=O)Nc2cc(C(C)C)c(O)cc2C)cc1 | -10% | 4% | 2% | 4%
CCOc1ccc(NC(=O)Nc2cc(C)ccc2F)cc1 | -3% | 2.5µM* | ? | -69%
CCOC(=O)C1=C(COC(=O)c2cccc(Br)c2)NC(=O)NC1C (stereo unspecified) | . | 22% | 4% | .
CCOC(=O)C1=C(COC(=O)c2cccc(N(C)C)c2)NC(=O)NC1C (stereo unspecified) | . | 4.5µM* | 18% | .
O=C(CCc1nnc(-c2ccc(-c3ccccc3)cc2)o1)N1CCCCC1 | -17% | -4% | -4% | -2%
O=C(CCc1nnc(-c2ccsc2)o1)N1CCc2c(Cl)cccc2C1 | -16% | 11µM* | 4% | -39%
CCC(C(=O)Nc1ccc2c(c1)OCCO2)n1nnc2ccccc2c1=O (stereo unspecified) | -20% | 10µM* | 10% | -54%
COc1ccc(Cn2c(CNC(=O)c3ccc(N(C)C)cc3)nc3cccnc32)cc1 | 6% | . | . | -4%
CC(=O)C(C)Oc1ccc2c3c(c(=O)oc2c1)CCCC3 (stereo unspecified) | -20% | 11µM* | 25% | -62%
COc1ccc(-n2[nH]c3c(cnc4ccccc43)c2=O)cc1 | . | 14µM* | . | .
Cc1ccc(N/N=C/c2ccncc2)cc1 | -20% | 6.3µM* | ? | -29%
Cc1cc(N/N=C/c2ccncc2)nc2ccccc12 | -16% | 5.6µM* | -2% | -80%
CCc1noc2nc(C)n(CC(=O)O)c(=O)c12 | 2% | 2% | . | 2%
Cc1cc(C)c2nc(NC(=O)C3CSC4(C)CCC(=O)N34)sc2c1 (stereo unspecified) | . | -42% | -3% | .
Clc1ccccc1CONc1ncnc2nonc12 | -19% | 10µM* | 28% | -53%
COc1cccc(Nc2nc(CC(C)=O)ns2)c1 | -19% | 11µM* | 13% | -33%
CC(=O)Cc1nsc(Nc2ccc(Cl)cc2)n1 | -18% | 10µM* | 0% | -46%
COc1ccc(Nc2nc(CC(C)=O)ns2)cc1 | -11% | 10µM* | ? | -56%

3 entries already listed, sorted by number of heavy atoms, rising.
SMILES | Anesthetic bind | BRCA1 expr up | p53 reactivation | miR-21 reporter
CC(=O)Cc1nsc(Nc2ccc(Cl)cc2)n1 | -18% | 10µM* | 0% | -46%
COc1cccc(Nc2nc(CC(C)=O)ns2)c1 | -19% | 11µM* | 13% | -33%
Cc1cc(C)c2nc(NC(=O)C3CSC4(C)CCC(=O)N34)sc2c1 (stereo unspecified) | . | -42% | -3% | .
